Experimental data taken from US9174997B2, “4-(4-cyano-2-thioaryl)dihydropyrimidinones and use thereof” (Bayer Intellectual Property GmbH, priority 2007, dated 2015).

The chains behind the UniProt entries cited, without tags or fusion partners. Residues count along the entry.
UniProt P08246, 30-267: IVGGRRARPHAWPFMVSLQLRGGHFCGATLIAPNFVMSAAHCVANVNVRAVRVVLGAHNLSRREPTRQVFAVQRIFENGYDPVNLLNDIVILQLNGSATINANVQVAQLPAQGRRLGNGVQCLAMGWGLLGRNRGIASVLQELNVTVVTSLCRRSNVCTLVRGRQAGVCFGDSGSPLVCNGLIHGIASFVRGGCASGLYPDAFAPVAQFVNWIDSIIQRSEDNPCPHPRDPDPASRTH

Biological target: human neutrophil elastase (HNE) (Homo sapiens (Human), UniProt P08246)
Assay: In vitro HNE inhibition assay
Format: biochemical
Conditions: HNE concentration of 80 pM; substrate MeOSuc-Ala-Ala-Pro-Val-AMC; 37° C. for 2 hours
Experimental: B-1. In Vitro HNE Inhibition Assay
The potency of the compounds of the invention is ascertained in an in vitro inhibition assay. The HNE-mediated amidolytic cleavage of a suitable peptide substrate leads in this connection to an increase in the fluorescent light. The signal intensity of the fluorescent light is directly proportional to the enzyme activity.
Enzyme ([…]; from Serva, Heidelberg) and substrate (20 μM MeOSuc-Ala-Ala-Pro-Val-AMC; from Bachem, Weil am Rhein) are incubated in an assay volume of in total 50 μl of assay buffer (0.1 M HEPES pH 7.4, 0.5 M NaCl, 0.1% w/v BSA, 1% v/v DMSO) in a 384-well microtiter plate in the presence and absence of the test substance at 37° C. for 2 hours. […] The IC50 values are determined by plotting the intensity of the fluorescent light against the active substance concentration.

- IC50: 1.6 nM
Compound: CS(=O)(=O)c1cc(C#N)ccc1C1NC(=O)N(c2cccc(C(F)(F)F)c2)C2=C1C(=O)N(CCNC(N)=O)C2 (racemic) [Example 50, (rac)-1-(2-{4-[4-Cyano-2-(methylsulfonyl)phenyl]-2,5-dioxo-1-[3-(trifluoromethyl)phenyl]-1,2,3,4,5,7-hexahydro-6H-pyrrolo[3,4-d]pyrimidin-6-yl}ethyl)urea]
